From patent US7271162B2, “Cycloocta[b][1,4]diazepino[6,7,1-hi]indoles and derivatives” (Wyeth, priority 2000, dated 2007)

Amino acid sequences for entries named in this document (tags omitted). Residues count along the entry.
UniProt P28335, 33-458: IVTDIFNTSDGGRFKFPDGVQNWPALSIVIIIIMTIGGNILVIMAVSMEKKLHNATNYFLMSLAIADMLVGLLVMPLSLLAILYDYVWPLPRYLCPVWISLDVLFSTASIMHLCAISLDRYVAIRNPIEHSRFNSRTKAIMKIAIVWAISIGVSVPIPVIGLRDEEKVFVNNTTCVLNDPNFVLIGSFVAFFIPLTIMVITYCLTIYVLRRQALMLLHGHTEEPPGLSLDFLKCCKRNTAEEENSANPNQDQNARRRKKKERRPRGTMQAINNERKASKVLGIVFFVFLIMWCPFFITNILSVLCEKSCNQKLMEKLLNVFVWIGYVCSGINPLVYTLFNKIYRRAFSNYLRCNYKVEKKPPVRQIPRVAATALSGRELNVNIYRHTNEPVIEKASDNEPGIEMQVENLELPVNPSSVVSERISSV

Key:
human 5-HT2C receptor = human 5-HT2C receptor (Homo sapiens, UniProt P28335); experiment: Stimulation of [3H] Inositol Monophosphate Production by 5HT2C Agonists in transfected CHO cells; details: reference compounds
[1] = molecular target: T1, human 5-hydroxytryptamine2C (h5HT2C) receptor (Homo sapiens, UniProt P28335); experiment: 5HT2C Receptor Binding Test Procedure ([125I] DOI displacement, membranes of transfected CHO cells); details: reference compounds, [125I] DOI binding, read-out: Ki value and 95% confidence interval
T1 construct: expressed in transfected cells; host or cells: CHO (Chinese Hamster Ovary) cells; membrane preparation

## Clc1cccc(N2CCNCC2)c1 [mCPP, meta-chlorophenylpiperazine]
Human 5-HT2C receptor; [3H] IP1 production, CHO h5-HT2C cells
  EC50: 46.8 nM
Human 5-HT2C receptor; relative to 5-HT
  EMAX (relative to 5-HT): 60%
[1]
  Ki: 6.5 nM
